# Data reported in PubChem BioAssay (NCI).
# Several values for one entry are separate records, joined by “and”; a condition that tells them apart may be missing. Equal entries are not always repeated. The list shows a part of the results, in another mix than the full data.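 Compound tested at a single concentration for 48 hours in 96-well plates; a percent growth value below 10 was scored as active.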 Activity calls are given as the source filed them.
# Test system: OVCAR-4 ovarian
# Experiment: NCI-60 one-dose screen, 48 h (100 = growth as untreated, 0 = no growth, -100 = all killed)
# Conditions: 10 µM unless noted
row,Structure (SMILES),growth
1,COc1cc([N+](=O)[O-])c([N+](=O)[O-])cc1N,inactive: 115%
2,Cc1ccc(Sc2ccc([N+](=O)[O-])cc2[N+](=O)[O-])c([N+](=O)[O-])c1,inactive: 42.9%
3,CC(=O)Nc1ccc([As](=O)(O)O)cc1,inactive: 111%
4,ClCCN1CCc2ccccc2C1,inactive: 114%
5,CCOC(=O)NC(C)(CCC(C)(NC(=O)OCC)P(=O)(O)Nc1ncccn1)P(=O)(O)Nc1ncccn1 (stereo not drawn),inactive: 104% [100 µM]
6,CCSC(O)C(Cl)(Cl)Cl (stereo not drawn),inactive: 117%
7,COP(=O)(OC)N1CC1c1ccccc1 (stereo not drawn),inactive: 108%
8,O=P1(N(CCCl)CCCl)OCCCS1 (stereo not drawn),inactive: 100%
9,CC[C@H](C)[C@@H]1NC(=O)/C(=C(\C)O)C1=O,inactive: 109%
10,CCN(CCCl)C(Cc1ccccc1)c1ccccc1 (stereo not drawn),inactive: 106%
11,[N-]=[N+]=NS(=O)(=O)c1ccc([N+](=O)[O-])cc1,inactive: 101%
12,O=P1(N(CCCl)CCCl)OCCCN1CCCl (stereo not drawn),inactive: 112%
13,O=C1CSC(C(Cl)(Cl)Cl)N1c1ccc(Cl)cc1 (stereo not drawn),inactive: 93.2%
14,ClC1(Cl)SC(Cl)(Cl)C(Cl)(Cl)C1(Cl)Cl,inactive: 101%
15,Nc1ccc(CCCCOc2ccccc2)cc1,inactive: 68.3%
16,CCN(CCCl)c1ccc(CCC(=O)O)cc1,inactive: 108%
17,O=C(OC1CN2CCC1CC2)c1ccccc1 (stereo not drawn),inactive: 112%
18,Nc1nnc(N)nn1,inactive: 116%
19,COP(OC)c1ccc(C)cc1,inactive: 108%

row,Structure (SMILES),growth
1,CCOP(=O)(NC1CCCCC1)OCC,inactive: 118%
2,CC(Cl)CN(CC(C)Cl)C(=O)OCC(N)C(=O)O (stereo not drawn),inactive: 108% and inactive: 107%
3,O=S1(=O)CC(Sc2ccccc2)[C@@H](Cl)C1 (stereo partly drawn),inactive: 101%
4,O=C(CCC(=O)Oc1c(Cl)cc([N+](=O)[O-])cc1[N+](=O)[O-])Oc1c(Cl)cc([N+](=O)[O-])cc1[N+](=O)[O-],inactive: 107%
5,COc1cccc([As]=O)c1 (stereo not drawn),active: -85.7%
6,c1cc(-c2nn[nH]n2)ccc1-c1nn[nH]n1,inactive: 94.5%
7,CCN(CCCl)Cc1ccccc1,inactive: 101%
8,CCCCOP(=O)(OCCCC)N1CCCC1C(=O)O (stereo not drawn),inactive: 101%
9,CCN(CCCl)C1c2ccccc2-c2ccccc21,inactive: 90.1%
10,CCOP(=O)(CCBr)OCC,inactive: 109% and inactive: 90.7%
11,ClCCNCc1ccccc1,inactive: 110%
12,O=[As]c1ccc(S(=O)(=O)Nc2ccccc2)cc1 (stereo not drawn),inactive: 57.3%
13,CCc1cc(O)c([N+](=O)[O-])c(C)c1[N+](=O)[O-],inactive: 123%
14,Clc1ccc(P(Cl)Cl)cc1,inactive: 105%
15,O=[As](O)(c1ccc(O)cc1)c1ccccc1O,inactive: 98.5%
16,CCCCCCC(C)OP(O)OC(C)CCCCCC (stereo not drawn),inactive: 105%
17,NC(=O)Nc1ccc([As](=O)(O)O)cc1,inactive: 103%
18,O=[N+]([O-])c1cc(Cl)cc([N+](=O)[O-])c1O,inactive: 106%
19,ClP1Nc2cncnc2N1 (stereo not drawn),inactive: 108%
